These are literature values, as cited in patent publication US20200390774A1, “TRPA1 ANTAGONISTS FOR USE IN THE TREATMENT OF ATOPIC DERMATITIS” (GALDERMA RESEARCH & DEVELOPMENT, priority 2016, published 2020).

Amino acid sequences for entries named in this document (tags omitted).
UniProt Q8NER1, whole entry: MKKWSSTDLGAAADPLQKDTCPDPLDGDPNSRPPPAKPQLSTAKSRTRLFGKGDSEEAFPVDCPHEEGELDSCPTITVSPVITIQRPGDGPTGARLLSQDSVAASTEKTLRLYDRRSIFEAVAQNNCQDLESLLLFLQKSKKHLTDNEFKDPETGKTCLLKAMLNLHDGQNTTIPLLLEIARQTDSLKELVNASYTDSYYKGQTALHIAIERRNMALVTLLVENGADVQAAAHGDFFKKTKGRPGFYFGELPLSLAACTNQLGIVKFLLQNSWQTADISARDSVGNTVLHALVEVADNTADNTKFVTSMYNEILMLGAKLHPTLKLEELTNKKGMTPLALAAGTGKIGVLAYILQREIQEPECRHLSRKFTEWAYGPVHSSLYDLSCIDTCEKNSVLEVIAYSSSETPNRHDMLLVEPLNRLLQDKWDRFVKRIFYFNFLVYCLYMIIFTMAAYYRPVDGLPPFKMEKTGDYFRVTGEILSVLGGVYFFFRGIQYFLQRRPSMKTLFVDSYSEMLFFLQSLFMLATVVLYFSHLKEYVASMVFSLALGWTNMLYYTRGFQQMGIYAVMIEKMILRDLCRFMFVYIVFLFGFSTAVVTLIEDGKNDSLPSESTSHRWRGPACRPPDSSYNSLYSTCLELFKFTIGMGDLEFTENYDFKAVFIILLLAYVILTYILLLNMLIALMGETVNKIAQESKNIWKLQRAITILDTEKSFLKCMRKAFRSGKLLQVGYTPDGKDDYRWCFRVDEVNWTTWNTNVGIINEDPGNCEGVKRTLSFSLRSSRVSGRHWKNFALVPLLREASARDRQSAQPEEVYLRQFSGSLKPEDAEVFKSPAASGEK
UniProt Q8NET8, whole entry: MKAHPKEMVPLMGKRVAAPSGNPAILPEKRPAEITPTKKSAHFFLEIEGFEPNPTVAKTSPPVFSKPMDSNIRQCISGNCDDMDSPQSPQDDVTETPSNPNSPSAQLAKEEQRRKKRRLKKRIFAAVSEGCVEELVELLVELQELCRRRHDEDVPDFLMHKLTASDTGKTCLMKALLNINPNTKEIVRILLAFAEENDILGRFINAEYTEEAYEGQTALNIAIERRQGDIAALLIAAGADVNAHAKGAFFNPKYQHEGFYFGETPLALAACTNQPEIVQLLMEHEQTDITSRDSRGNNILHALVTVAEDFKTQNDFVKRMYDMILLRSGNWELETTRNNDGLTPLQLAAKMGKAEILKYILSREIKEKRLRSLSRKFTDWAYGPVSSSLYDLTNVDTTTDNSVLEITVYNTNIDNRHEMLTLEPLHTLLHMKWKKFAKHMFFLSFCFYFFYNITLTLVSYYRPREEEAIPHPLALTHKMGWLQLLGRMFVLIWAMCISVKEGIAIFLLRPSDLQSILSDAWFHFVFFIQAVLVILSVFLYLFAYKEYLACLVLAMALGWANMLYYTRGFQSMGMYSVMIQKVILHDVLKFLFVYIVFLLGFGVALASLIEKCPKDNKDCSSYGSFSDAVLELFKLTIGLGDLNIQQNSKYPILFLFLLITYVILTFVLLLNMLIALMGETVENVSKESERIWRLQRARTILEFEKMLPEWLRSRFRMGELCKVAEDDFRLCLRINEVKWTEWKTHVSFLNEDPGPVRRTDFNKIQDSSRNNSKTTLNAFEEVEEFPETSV

Series [1] concerns the target hTRPV1 (Homo sapiens, UniProt Q8NER1). Conditions: read-out: IC50 hTRPV1; unit inferred; cited from earlier work.
Series [2] deals with hTRPV3 (Homo sapiens, UniProt Q8NET8). Particulars: read-out: IC50 hTRPV3; unit inferred; cited from earlier work.

`CC1CCCN1c1ncc(-c2cccc(NC(=O)Cn3cnc4c3c(=O)n(C)c(=O)n4C)n2)cn1` (centres unmarked): the IC50 was greater than 100 µM in series [1] and greater than 300 µM in series [2].

What is called IC50 is the concentration that inhibits the measured activity by half.
